Measured values: PubChem BioAssay (NCI)
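48-hour exposure; five concentrations; linearly interpolated endpoints. TGI: concentration producing complete growth inhibition.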

Experiments:
Assay in all cases: DTP human tumour cell line panel, 48 h
CAKI-1 renal = system: CAKI-1 renal
LOX IMVI melanoma = system: LOX IMVI melanoma
RXF 393 renal = system: RXF 393 renal
NCI-H23 lung = system: NCI-H23 lung
DLD-1 colon = system: DLD-1 colon
K-562 leukemia = system: K-562 leukemia
COLO 205 colon = system: COLO 205 colon
HCT-15 colon = system: HCT-15 colon
SK-MEL-5 melanoma = system: SK-MEL-5 melanoma
A549 NSCLC = system: A549 NSCLC
OVCAR-4 ovarian = system: OVCAR-4 ovarian
HCT-116 colon = system: HCT-116 colon
HOP-62 NSCLC = system: HOP-62 NSCLC
HOP-18 NSCLC = system: HOP-18 NSCLC
OVCAR-8 ovarian = system: OVCAR-8 ovarian
HCC-2998 colon = system: HCC-2998 colon
SNB-19 CNS = system: SNB-19 CNS
CCRF-CEM leukemia = system: CCRF-CEM leukemia
OVCAR-5 ovarian = system: OVCAR-5 ovarian
SR leukemia = system: SR leukemia
M14 melanoma = system: M14 melanoma
SNB-75 CNS = system: SNB-75 CNS
SK-MEL-28 melanoma = system: SK-MEL-28 melanoma
HT29 colon = system: HT29 colon
SK-OV-3 ovarian = system: SK-OV-3 ovarian
LXFL 529 NSCLC = system: LXFL 529 NSCLC
NCI-H322M lung = system: NCI-H322M lung
HL-60(TB) leukemia = system: HL-60(TB) leukemia
A498 renal = system: A498 renal
OVCAR-3 ovarian = system: OVCAR-3 ovarian
U251 CNS = system: U251 CNS
ACHN renal = system: ACHN renal
NCI-H522 lung = system: NCI-H522 lung
NCI-H226 lung = system: NCI-H226 lung
UACC-257 melanoma = system: UACC-257 melanoma
KM20L2 colon = system: KM20L2 colon
786-0 renal = system: 786-0 renal
TK-10 renal = system: TK-10 renal
UACC-62 melanoma = system: UACC-62 melanoma
SF-295 CNS = system: SF-295 CNS
M19-MEL melanoma = system: M19-MEL melanoma
NCI-H460 lung = system: NCI-H460 lung
MOLT-4 leukemia = system: MOLT-4 leukemia
EKVX NSCLC = system: EKVX NSCLC
RXF-631 renal = system: RXF-631 renal
IGROV1 ovarian = system: IGROV1 ovarian
SF-539 CNS = system: SF-539 CNS
HOP-92 NSCLC = system: HOP-92 NSCLC
SF-268 CNS = system: SF-268 CNS
SK-MEL-2 melanoma = system: SK-MEL-2 melanoma
UO-31 renal = system: UO-31 renal
KM12 colon = system: KM12 colon
MALME-3M melanoma = system: MALME-3M melanoma
SN12C renal = system: SN12C renal
DMS 114 small cell lung = system: DMS 114 small cell lung
DMS 273 small cell lung = system: DMS 273 small cell lung
SW-620 colon = system: SW-620 colon

Measured: TGI

CN(C)C(=O)Oc1ccc(/C=N/O)[n+](C)c1
> 100 µM: all assays above
